Data: ChEMBL document CHEMBL4673183, “Hit-to-lead optimization of a benzene sulfonamide series for potential antileishmanial agents” (RSC Med Chem, 2020)

assay: Selectivity ratio of IC50 for Antileishmanial activity against amastigote stage of Leishmania donovani MHOM/ET/67/L82 infected in mouse peritoneal macrophages to IC50 for Antileishmanial activity against amastigote stage of Leishmania infantum MHOM/MA(BE)/67/ITMAP263 infected in mouse peritoneal macrophages; assay type: functional

Row | Compound | Ratio IC50
1 | CCCCCOc1cc(C)c(Cl)cc1S(=O)(=O)NCc1cccs1 | >100
2 | CCCCCOc1cc(C)c(C)cc1S(=O)(=O)NC1CCCC1 | >100
3 | COc1cc(S(=O)(=O)N(Cc2ccccc2)Cc2ccccc2)c(OC)cc1C | >100
